Binding of CDR-mutated scFvs to a peptide of the spike HR2 region

Data: MIT Lincoln Laboratory AlphaSeq set, Li et al. 2023, doi:10.1038/s41467-023-39022-2, as distributed in FLAb.

All variants were tested on one target, the spike HR2 peptide PDVDLGDISGINAS (SARS-CoV-2).

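Phage display of a naive human antibody library on the peptide gave the parent. The variants were designed computationally from a first round of random CDR variants and then made and measured. Group labels follow the data file (Ctrl: baseline library sampled from a position-specific scoring matrix, with some repeated check sequences; Rand: our label for a block that the file lists under HC and that is probably the random mutants of the ten best first-round binders; GP: Gaussian process model; GPLM: also part of the Gaussian process libraries; HC: hill climbing; Gen: genetic algorithm; Gibbs: Gibbs sampling; a sequence that several methods proposed may carry one label only). Affinity was read by AlphaSeq, a pooled yeast mating assay with surface-displayed partners. Pairs that bind mate more often; barcode pairs of the diploids are counted by sequencing. A regression on co-assayed BCL2-family reference pairs converts the normalised counts of each replicate to an apparent Kd. Mating was done six times.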

Ab-14 is the parent antibody, in scFv form: VH, then three GGGGS repeats, then VL. The light chain is unchanged in all variants.
VH: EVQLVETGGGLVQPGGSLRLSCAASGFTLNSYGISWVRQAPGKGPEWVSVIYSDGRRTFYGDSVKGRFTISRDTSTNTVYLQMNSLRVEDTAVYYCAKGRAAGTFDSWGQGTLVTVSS
VL: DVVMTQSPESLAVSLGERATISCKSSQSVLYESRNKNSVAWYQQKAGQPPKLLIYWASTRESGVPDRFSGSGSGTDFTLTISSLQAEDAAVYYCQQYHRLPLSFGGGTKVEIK

The whole VH of each variant is written out.
Variants here have at most six changes.
Values are log10 of the apparent Kd in nM; lower means stronger binding.
Averages over replicates are reported, and they cover detected replicates only.
Where no diploid with the target was found in any replicate, the entry reads "nd": below detection, most likely a poor binder, though not proof of it.
A sequence that the file lists under several names has all its replicates pooled.

For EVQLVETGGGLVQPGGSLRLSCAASGFELNDYGISWVRQAPGKGPEWVSVIYSDGRRTFYTDSVKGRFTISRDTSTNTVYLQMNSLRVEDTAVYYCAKGRAAGTFDSWGQGTLVTVSS [Ctrl+GP_HC], the assay gave -0.13 (12 of 12 replicates; controls 0 of 36). The variant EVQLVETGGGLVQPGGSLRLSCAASGFTLNDYGISWVRQAPGKGPEWVSVIYSDGRRTFMGDSVKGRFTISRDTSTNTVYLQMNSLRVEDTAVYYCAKGRTAVTFDSWGQGTLVTVSS [Ctrl] gave nd (0 of 6 replicates; controls 0 of 18). The variant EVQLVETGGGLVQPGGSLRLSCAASGFTLNDYGISWVRQAPGKGPEWVSVIYSDGRRTFYGDSVKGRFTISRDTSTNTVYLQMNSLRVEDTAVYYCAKGRLAGTFDIWGQGTLVTVSS [GP_HC] gave 0.57 (6 of 6 replicates; controls 0 of 18). The variant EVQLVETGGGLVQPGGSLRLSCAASGFDLNSYGISWVRQAPGKGPEWVSVIYSDGRRTFYGDSVKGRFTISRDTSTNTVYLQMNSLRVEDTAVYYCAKGRLAGTFDTWGQGTLVTVSS [GP_Gen] gave 0.31 (6 of 6 replicates; controls 1 of 18). The variant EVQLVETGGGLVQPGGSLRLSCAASGFSLNEYGISWVRQAPGKGPEWVSVIYSDGRRTFYIDSVKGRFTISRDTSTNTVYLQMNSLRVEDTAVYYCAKGKAAGTFDSWGQGTLVTVSS [GPLM_Gen] gave 0.23 (6 of 6 replicates; controls 0 of 18). The variant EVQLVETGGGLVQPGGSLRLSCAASGFTLNSYGISWVRQAPGKGPEWVSVIYSDGRRTFYIDSVKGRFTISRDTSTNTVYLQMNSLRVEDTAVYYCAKGEAAGTFDSWGQGTLVTVSS [GPLM_Gen] showed 0.55 (6 of 6 replicates; controls 0 of 18).

With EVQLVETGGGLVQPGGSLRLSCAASGFTLNSYGISWVRQAPGKGPEWVSVIYADGRRTFYGDSVKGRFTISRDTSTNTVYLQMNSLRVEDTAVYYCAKGRAAGTFDYWGQGTLVTVSS [Ctrl] the result was 0.79 (6 of 6 replicates; controls 0 of 18). For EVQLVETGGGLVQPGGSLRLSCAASGITLNSYGISWVRQAPGKGPEWVSVIYSDGRRTFYDDSVKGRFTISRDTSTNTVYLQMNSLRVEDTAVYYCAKGQLAGTFDSWGQGTLVTVSS [Rand], the assay gave 0.61 (2 of 6 replicates; controls 0 of 18). The variant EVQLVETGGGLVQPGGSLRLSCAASGFDLNSYGISWVRQAPGKGPEWVSVIYSDGRRTFYCDSVKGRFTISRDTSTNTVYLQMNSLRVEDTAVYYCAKGRLAGTFDSWGQGTLVTVSS [GPLM_HC] gave 1.00 (5 of 6 replicates; controls 0 of 18). The variant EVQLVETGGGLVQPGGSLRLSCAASGFTLNSYGISWVRQAPGKGPEWVSVIYSDGRRTFYGDSVKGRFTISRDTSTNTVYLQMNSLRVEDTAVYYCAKGRFAGTYDSWGQGTLVTVSS [Ctrl] gave nd (0 of 6 replicates; controls 0 of 18). The variant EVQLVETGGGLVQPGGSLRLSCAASGFTLNSYGISWVRQAPGKGPEWVSVIYSDGRRTFYTDSVKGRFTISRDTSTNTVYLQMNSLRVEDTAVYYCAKGMMAGTFDSWGQGTLVTVSS [GP_HC] gave 1.06 (6 of 6 replicates; controls 0 of 18). With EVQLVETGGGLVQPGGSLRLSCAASGFDLNSYGISWVRQAPGKGPEWVSVIYSDGRRTFYGDQVKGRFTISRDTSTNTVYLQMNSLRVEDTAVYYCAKGREAGTFDNWGQGTLVTVSS [GP_Gibbs] the result was 0.56 (6 of 6 replicates; controls 0 of 18).

For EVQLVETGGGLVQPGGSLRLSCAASGFWLNDYGISWVRQAPGKGPEWVSVIYSDGRRTMYGDSVKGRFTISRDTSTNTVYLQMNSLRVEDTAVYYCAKGRTAGTFDSWGQGTLVTVSS [GP_Gibbs], the assay gave 0.99 (6 of 6 replicates; controls 0 of 18). For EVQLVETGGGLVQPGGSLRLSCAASGFTLNEYGISWVRQAPGKGPEWVSVIYSDGRRTFYHDSVKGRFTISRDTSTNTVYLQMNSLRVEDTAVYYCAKGRAGGTFDSWGQGTLVTVSS [GP_HC], the assay gave 0.78 (3 of 6 replicates; controls 0 of 18). The variant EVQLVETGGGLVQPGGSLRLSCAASGFTLNEYGISWVRQAPGKGPEWVSVIYSDGRRTWYTDSVKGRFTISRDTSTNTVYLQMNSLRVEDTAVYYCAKGRAAGTFDSWGQGTLVTVSS [GPLM_HC] showed 1.64 (2 of 6 replicates; controls 0 of 18). The variant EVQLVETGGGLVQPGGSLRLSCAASGFTLNEYGISWVRQAPGKGPEWVSVIYSDGRRTFYGDSVKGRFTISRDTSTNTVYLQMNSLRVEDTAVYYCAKGREAGTFDSWGQGTLVTVSS [GPLM_Gen] gave 0.34 (6 of 6 replicates; controls 1 of 18). The variant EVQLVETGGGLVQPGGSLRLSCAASGFSLNSYGISWVRQAPGKGPEWVSVIYSDGRRTFYADNVKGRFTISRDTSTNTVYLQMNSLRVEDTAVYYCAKGNAAGTFDSWGQGTLVTVSS [GPLM_Gen] showed 0.33 (5 of 6 replicates; controls 0 of 18). With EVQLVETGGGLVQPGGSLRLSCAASGFTLNEYGISWVRQAPGKGPEWVSVIYSDGRRTFYGDSVKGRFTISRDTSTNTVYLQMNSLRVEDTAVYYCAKGRAAVTFNKWGQGTLVTVSS [GP_HC] the result was nd (0 of 6 replicates; controls 0 of 18).

The variant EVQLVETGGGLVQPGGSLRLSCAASGFTLNEYGISWVRQAPGKGPEWVSVIYSDGRRTFYSDSVKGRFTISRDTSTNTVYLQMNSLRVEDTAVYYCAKGSAAGTFDNWGQGTLVTVSS [GP_HC] gave 0.03 (6 of 6 replicates; controls 0 of 18). For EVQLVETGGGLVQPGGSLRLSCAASGFTLNSYGISWVRQAPGKGPEWVSVIYSDGRRTAYGDSVKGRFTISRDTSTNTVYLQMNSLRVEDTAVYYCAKGRAACTFDSWGQGTLVTVSS [Ctrl], the assay gave nd (0 of 6 replicates; controls 0 of 18). For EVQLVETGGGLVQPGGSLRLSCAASGFSLNSYGISWVRQAPGKGPEWVSVIYADGRRTFYGDSVKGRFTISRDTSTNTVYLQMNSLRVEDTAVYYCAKGEAAGTFDAWGQGTLVTVSS [GP_Gen], the assay gave -0.47 (6 of 6 replicates; controls 0 of 18). For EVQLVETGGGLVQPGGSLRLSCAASGFELNSYGISWVRQAPGKGPEWVSVIYSDGRRTFYADDVKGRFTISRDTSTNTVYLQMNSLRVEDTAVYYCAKGRTAGTFDSWGQGTLVTVSS [GPLM_Gen], the assay gave 0.08 (6 of 6 replicates; controls 0 of 18). The variant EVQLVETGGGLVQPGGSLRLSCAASGFDLNSYGISWVRQAPGKGPEWVSVIYSDGRRTFYGDSVKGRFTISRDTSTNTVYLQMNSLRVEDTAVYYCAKGRAAGYFDSWGQGTLVTVSS [GPLM_HC] showed nd (0 of 6 replicates; controls 0 of 18).

A selection of 4 entries from above:

{"VH": "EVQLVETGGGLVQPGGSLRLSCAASGFDLNSYGISWVRQAPGKGPEWVSVIYSDGRRTFYGDSVKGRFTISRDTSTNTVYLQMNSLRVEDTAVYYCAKGRAAGYFDSWGQGTLVTVSS", "group": "GPLM_HC", "mean log10 Kd (nM)": "nd", "detected": "0 of 6", "signal with controls": "0 of 18"}
{"VH": "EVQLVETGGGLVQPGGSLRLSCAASGFSLNEYGISWVRQAPGKGPEWVSVIYSDGRRTFYIDSVKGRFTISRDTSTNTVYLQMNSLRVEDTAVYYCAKGKAAGTFDSWGQGTLVTVSS", "group": "GPLM_Gen", "mean log10 Kd (nM)": "0.23", "detected": "6 of 6", "signal with controls": "0 of 18"}
{"VH": "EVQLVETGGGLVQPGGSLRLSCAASGFELNDYGISWVRQAPGKGPEWVSVIYSDGRRTFYTDSVKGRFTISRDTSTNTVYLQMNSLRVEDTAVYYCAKGRAAGTFDSWGQGTLVTVSS", "group": "Ctrl+GP_HC", "mean log10 Kd (nM)": "-0.13", "detected": "12 of 12", "signal with controls": "0 of 36"}
{"VH": "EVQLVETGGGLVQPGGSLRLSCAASGFTLNSYGISWVRQAPGKGPEWVSVIYSDGRRTFYGDSVKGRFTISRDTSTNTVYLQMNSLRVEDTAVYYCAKGRFAGTYDSWGQGTLVTVSS", "group": "Ctrl", "mean log10 Kd (nM)": "nd", "detected": "0 of 6", "signal with controls": "0 of 18"}

As a blank, each scFv also met three strains without target: over all heavy chain designs, 1% of these pairings were detected, typically at 2.08 and seldom below 0.84. The control count says in how many pairings with the empty strains this scFv gave a signal.
In the paper, a design with two or fewer of six values counts as a poor binder.
A sequence measured in both rounds can read differently, since the two assays cover different ranges.
Of ten entries with the parent sequence, four were seen in most replicates (averages 0.34 to 2.37), three in one and three in none, so single entries are noisy.